Test: Final product mixed with Deionized Water at room temperature
Settings: 0.0130 g of final product mixed with 1.287 g of Deionized Water at room temperature
From the text: Vacuum filtered solution through Grade 4 filter paper to obtain a clear, colorless solution. […] The solution was concentrated using a rotary evaporator until mixture began to foam, then solution was transferred to a glass crystallizing dish and placed in a vacuum oven at room temperature under a partial vacuum of 3 inches of Hg internal oven pressure.

For “Sodium (2R,3R,4S,5R)-6-((3-dodecyloxy) propyl)amino)-2,3,4,5-tetrahydroxy-6-oxohexyl sulfate [Example 6]”, which “appearance of mixture with Deionized Water (solubility)” value is on record?
Its value is “completely clear, colorless solution that foamed when shaken”.

From patent publication US20240409505A1, “GLUCONAMIDE SULFATE SURFACTANTS” (The Procter & Gamble Company, priority 2023, published 2024)
